Consider one molecule from patent US11732286B2, “T5 exonuclease-based method to identify DNA topoisomerase inhibitors” (The Florida International University Board of Trustees, priority 2020, dated 2023).

By UniProt entry, the sequences of proteins in these tests, tags left out. Where a name states a change or a piece, a line headed by the entry shows the natural chain unless it says otherwise.
UniProt P9WG49: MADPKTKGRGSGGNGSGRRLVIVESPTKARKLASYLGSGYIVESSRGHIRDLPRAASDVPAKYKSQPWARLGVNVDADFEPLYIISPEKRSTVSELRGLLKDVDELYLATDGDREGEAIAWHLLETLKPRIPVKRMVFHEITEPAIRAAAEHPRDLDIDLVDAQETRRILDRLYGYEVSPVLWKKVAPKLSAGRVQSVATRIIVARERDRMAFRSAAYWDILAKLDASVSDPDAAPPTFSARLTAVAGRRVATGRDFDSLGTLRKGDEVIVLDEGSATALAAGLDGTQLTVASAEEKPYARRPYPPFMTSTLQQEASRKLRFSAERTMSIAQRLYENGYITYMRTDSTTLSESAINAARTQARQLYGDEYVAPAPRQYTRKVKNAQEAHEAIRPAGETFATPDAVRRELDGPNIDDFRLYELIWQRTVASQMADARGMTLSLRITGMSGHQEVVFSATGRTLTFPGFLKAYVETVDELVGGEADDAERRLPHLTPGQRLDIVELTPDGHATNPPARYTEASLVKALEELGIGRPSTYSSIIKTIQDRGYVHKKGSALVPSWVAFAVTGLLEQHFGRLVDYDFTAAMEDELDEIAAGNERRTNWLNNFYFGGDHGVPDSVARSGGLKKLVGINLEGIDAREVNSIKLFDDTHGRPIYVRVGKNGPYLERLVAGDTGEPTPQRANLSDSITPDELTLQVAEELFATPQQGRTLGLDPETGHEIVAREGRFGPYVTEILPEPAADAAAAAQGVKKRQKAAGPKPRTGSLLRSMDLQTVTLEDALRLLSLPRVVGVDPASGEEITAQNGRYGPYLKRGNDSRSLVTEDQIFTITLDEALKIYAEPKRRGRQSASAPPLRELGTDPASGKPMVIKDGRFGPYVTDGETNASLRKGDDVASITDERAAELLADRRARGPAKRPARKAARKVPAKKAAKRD

The target in this assay is Mtb DNA topoisomerase I (Mycobacterium tuberculosis, UniProt P9WG49). The assay is classed as biochemical.

For the molecule `NCCCC[C@H](N)C(=O)O` [L-lysine], the “fluorescence, HTS screening of 50-compound library for Mtb DNA topoisomerase 1 inhibitors” value is 1246.
